Results taken from PubChem BioAssay AID598 (SRMLSC, 2007).
The list shows a part of the results, in another mix than the full data. Some of these compounds have results that are not shown, active ones among them. Active and inactive are the calls of the source.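 How the source made its calls: active means viability at or below 40%; inactive means viability above 40%.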

assay: H69AR cell viability reduction – human, 86K library, primary screen (AID 598); details: H69AR lung tumor viability, ATP luminescence, 72 h; at 10 µM; stronger effect = lower value;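 further: multidrug resistant small cell line overexpressing MRP-1 efflux transporter; 100% = mean luminescence of untreated control wells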

Compound	viability
CN(C)c1cccc(C(=O)NCC2(N(C)C)CCCCC2)c1	inactive: 68%
O=C(OC1CN2CCC1CC2)C(CO)(c1ccccc1)c1ccccc1 (configuration not stated)	inactive: 87.4%
